We go through one compound from patent US20110009446A1, “OLIGOMER-GUANIDINE CLASS CONJUGATES” (Nektar Therapeutics, priority 2008, published 2011).

Chains of the proteins cited; added tags and fusions are not shown. Residues count along the entry.
UniProt Q9WTR4, 1-597: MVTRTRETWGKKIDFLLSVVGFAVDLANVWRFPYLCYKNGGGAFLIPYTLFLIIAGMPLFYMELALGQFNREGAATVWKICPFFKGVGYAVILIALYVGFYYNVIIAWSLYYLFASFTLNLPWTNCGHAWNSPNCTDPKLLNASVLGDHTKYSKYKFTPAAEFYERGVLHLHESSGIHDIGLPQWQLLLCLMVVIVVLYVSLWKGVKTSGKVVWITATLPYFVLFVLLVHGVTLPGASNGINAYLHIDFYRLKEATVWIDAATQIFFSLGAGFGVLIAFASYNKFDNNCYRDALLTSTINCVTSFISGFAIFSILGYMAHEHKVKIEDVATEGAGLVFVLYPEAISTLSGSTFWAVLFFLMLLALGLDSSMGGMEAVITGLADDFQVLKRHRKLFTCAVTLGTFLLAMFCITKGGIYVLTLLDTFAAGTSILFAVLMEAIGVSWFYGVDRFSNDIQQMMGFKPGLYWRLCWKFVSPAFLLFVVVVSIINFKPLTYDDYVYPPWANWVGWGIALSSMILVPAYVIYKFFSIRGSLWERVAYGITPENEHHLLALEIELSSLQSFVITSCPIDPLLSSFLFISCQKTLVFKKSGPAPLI

Structures can show the parent of a compound that is named as a salt.

In this assay the target is T1, noradrenalin transporters (Rattus norvegicus, UniProt Q9WTR4).
T1 construct: membranes prepared from rat forebrain which express noradrenalin transporters; from tissue; host or cells: rat forebrain membranes
Kind of assay: Radioligand binding assay ([3H]-nisoxetine competition) in rat forebrain membranes. To be noted: Ki relative to debrisoquine sulfate. As to the method: The binding affinities of debrisoquine sulfate (parent) and three mPEG conjugates are evaluated using radioligand binding assays in membranes prepared from rat forebrain which express noradrenalin transporters.
Competition binding experiments are conducted by incubating membranes with 1.0 nM of radioligand, [^3H]-nisoxetine, in the presence of variable concentrations (0.1 nM to 3 μM and 1 nM to 30 μM for parent and PEG conjugates, respectively) of test compounds. The reaction is carried out in 50 mM Tris-HCl (pH 7.4), containing 300 mM NaCl and 5 mM KCl at 0-4° C. for 4 hours. Following incubations, the membranes are washed, and the bound radioactivity is measured. Non-specific binding is measured in the presence of excess desipramine (1.0 μM) as the cold ligand; this value is subtracted from the total binding to yield the specific binding at each test compound concentration.
Ki is obtained using the Cheng Prusoff correction using experimental Kd values that are previously determined under these assay conditions.

In the case of `N=C(N)N1CCc2ccccc2C1` [Debrisoquine sulfate, debrisoquine sulfate], the “Fold Change Relative to Parent” value amounted to 1.
